Tests used:
Acetyl-CoA carboxylase 2 = Acetyl-CoA carboxylase 2 (Homo sapiens, UniProt O00763); experiment: Inhibition of N-terminal His-tagged human recombinant ACC2 expressed in high five insect cells by ATP consumption assay
Acetyl-CoA carboxylase 1 = Acetyl-CoA carboxylase 1 (Rattus norvegicus, UniProt P11497); experiment: Inhibition of N-terminal His-tagged rat recombinant ACC1 expressed in high five insect cells by ATP consumption assay

IC50 (Acetyl-CoA carboxylase 2) [nM]	IC50 (Acetyl-CoA carboxylase 1) [nM]	SMILES
200	–	CC(=O)NC(C)CCc1ccc(Oc2ccc(OC(C)C)cn2)cc1 (configuration not stated)
–	590	O=C(c1c2ccccc2cc2ccccc12)N1CCC(N2CCC[C@@H](C(=O)N3CCOCC3)C2)CC1

From ChEMBL document CHEMBL1629448, “Identification and synthesis of novel inhibitors of acetyl-CoA carboxylase with in vitro and in vivo efficacy on fat oxidation” (J Med Chem, 2010)
